Test results reported in PMC6713233 (Toxicology in vitro : an international journal published in …, 2019).
Where “and” joins values, the source holds several entries; their conditions need not be identical. Equal values may be shown once.

Chains of the proteins cited; added tags and fusions are not shown. Residues count along the entry.
UniProt P22303, 32-614: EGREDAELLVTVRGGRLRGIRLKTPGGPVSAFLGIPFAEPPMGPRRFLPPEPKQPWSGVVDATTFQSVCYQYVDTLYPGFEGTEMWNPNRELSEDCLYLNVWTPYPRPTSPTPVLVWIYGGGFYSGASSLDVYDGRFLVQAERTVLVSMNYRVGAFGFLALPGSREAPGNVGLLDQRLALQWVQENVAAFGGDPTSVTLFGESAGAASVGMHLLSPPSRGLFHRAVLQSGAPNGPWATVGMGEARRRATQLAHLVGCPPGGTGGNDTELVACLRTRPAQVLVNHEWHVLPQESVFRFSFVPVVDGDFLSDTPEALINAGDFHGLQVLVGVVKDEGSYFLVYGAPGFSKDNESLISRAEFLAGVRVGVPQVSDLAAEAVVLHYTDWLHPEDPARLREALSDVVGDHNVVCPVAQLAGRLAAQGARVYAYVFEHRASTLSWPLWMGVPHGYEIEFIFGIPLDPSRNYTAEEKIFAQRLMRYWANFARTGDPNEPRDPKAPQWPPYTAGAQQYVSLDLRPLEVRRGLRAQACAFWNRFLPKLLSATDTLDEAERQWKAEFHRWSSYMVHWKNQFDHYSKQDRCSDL

Molecular target: recombinant human AChE (Homo sapiens, UniProt P22303)
Assay type: biochemical
Settings: read-out: IC50 on AChE inhibition

C=CC[N+](C)(C)c1ccc(CCC(=O)CCc2ccc([N+](C)(C)CC=C)cc2)cc1 [BW284c51]
IC50: 91.5 nM and 113 nM and 112 nM
